Test results published in patent US20140073556A1 (published 2014).

Target: T1, recombinant protein comprising the whole extracellular part of IL1RI (UniProt P14778 18-336)
T1 chain: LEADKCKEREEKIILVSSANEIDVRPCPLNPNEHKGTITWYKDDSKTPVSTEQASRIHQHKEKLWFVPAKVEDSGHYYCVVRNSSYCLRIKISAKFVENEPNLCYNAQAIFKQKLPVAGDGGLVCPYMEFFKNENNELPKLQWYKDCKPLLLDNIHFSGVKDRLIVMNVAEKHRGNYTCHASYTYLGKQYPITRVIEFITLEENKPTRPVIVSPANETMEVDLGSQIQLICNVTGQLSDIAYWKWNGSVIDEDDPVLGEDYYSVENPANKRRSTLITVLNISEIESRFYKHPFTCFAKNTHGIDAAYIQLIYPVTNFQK
Test: SPR

B1: IL1Ra protein (IL-1 receptor antagonist protein) (ligand)
chain: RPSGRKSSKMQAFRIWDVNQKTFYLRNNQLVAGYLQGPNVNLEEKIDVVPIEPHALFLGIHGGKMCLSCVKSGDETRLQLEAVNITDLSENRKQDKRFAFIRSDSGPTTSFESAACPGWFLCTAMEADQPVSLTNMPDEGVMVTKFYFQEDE
With B1 the Kd was 48 nM.
